Measurements: publication PMC6252132 (Bioorganic & medicinal chemistry, 2018)

Assays:
[1] = system: p38 T180/Y182 phosphorylation in 3T3-L1 adipocytes
[2] = system: IL-6 secretion from 3T3-L1 adipocytes
[3] = system: pTBK1 S172 in 3T3-L1 adipocytes

| Structure (SMILES) | p38 T180/Y182 phosphorylation normalized to the response to amlexanox (5) [1] | IL-6 secretion normalized to the response to amlexanox (5) [2] | pTBK1 S172 phosphorylation normalized to the response to amlexanox (5) [3] |
| --- | --- | --- | --- |
| Nc1nc2oc3ccc(C4CCCCC4)cc3c(=O)c2cc1-c1nn[nH]n1 [compound 168, 2-Amino-7-cyclohexyl-3-(1H-tetrazol-5-yl)-5H-chromeno[2,3-b]pyridine-5-one] | 0.49 | – | – |
| Nc1nc2oc3ccc(C4=CCCCC4)cc3c(=O)c2cc1-c1nn[nH]n1 [compound 169, 2-Amino-7-(cyclohex-1-en-1-yl)-3-(1H-tetrazol-5-yl)-5H-chromeno[2,3-b]pyridine-5-one] | 0.10 | 0.00 | – |
| CN(C)c1ccc2oc3nc(N)c(-c4nn[nH]n4)cc3c(=O)c2c1 [compound 170, 2-Amino-7-(dimethylamino)-3-(1H-tetrazol-5-yl)-5H-chromeno[2,3-b]pyridin-5-one] | 0.00 | 0.03 | – |
| Nc1nc2oc3ccc(N4CCOCC4)cc3c(=O)c2cc1-c1nn[nH]n1 [compound 171, 2-Amino-7-morpholino-3-(1H-tetrazol-5-yl)-5H-chromeno[2,3-b]pyridine-5-one] | 0.70 | 0.54 | 0.39 |
